{"sequences": {"note": "Sequences of proteins named here, by UniProt entry; tags and fusion partners are left off.", "UniProt Q5BJF2, whole entry": "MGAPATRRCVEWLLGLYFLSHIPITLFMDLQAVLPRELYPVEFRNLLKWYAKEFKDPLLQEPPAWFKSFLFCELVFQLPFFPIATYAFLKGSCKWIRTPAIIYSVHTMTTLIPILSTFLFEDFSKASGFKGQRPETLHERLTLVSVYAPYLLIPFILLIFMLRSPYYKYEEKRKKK"}, "source": "paper PMC7431030", "about": "(Nature, 2020)", "molecular_target": "SigmaR2 (Homo sapiens, UniProt Q5BJF2)", "experiment": "Sigma2 receptor radioligand binding/displacement assay", "conditions": "Fig. 6h, mean±SD"}
{"smiles": "COc1cccc2c1CCCC2CCCN1CCN(C2CCCCC2)CC1", "note": "(stereo not shown) [PB28]", "values": [{"measurement": "pKi SigmaR2", "value": "8.6±0.1"}]}
